The source of these data is patent publication US20240293588A1, “THERAPEUTIC CONJUGATES” (Starpharma Pty Ltd, priority 2020, published 2024).

What all share (assay type): cell-based
The test system of one assay is NCI-N87 cells. Put plainly: GI50 panel (MTT assay), NCI-N87. On the technique in general: Tetrazolium dyes change colour on reduction, which living cells bring about.
The subject of another assay is SK-Br-3 cells. The assay can be described thus: GI50 panel (MTT assay), SK-BR-3. Conditions: SK-BR-3, MTT.
A further assay deals with SKOV-3 cells. Put plainly: GI50 panel (MTT assay), SKOV-3. The settings on record: SKOV-3, MTT.
The next assay relates to OE-19 cells. The assay can be described thus: GI50 panel (MTT assay), OE19.
The next assay deals with MDA-MB-231 cells. The assay can be described thus: GI50 panel (MTT assay), MDA-MB-231. The settings on record: MDA-MB-231, MTT.
Setting [1] is: 72 h, Kadcyla based on estimated weight ADC, footnote: based on MMAE drug equivalents.

In the case of “Kadcyla: marketed comparator; GI50 based on estimated weight ADC”, the GI50 with NCI-N87 cells (setting [1]) was 0.1 nM; in the assay on SK-Br-3 cells (setting [1]), 0.04 nM; in the assay on SKOV-3 cells (setting [1]) it was 50.7 nM; in the assay on OE-19 cells (setting [1]) it was 0.06 nM; in the assay on MDA-MB-231 cells (setting [1]), 22.9 nM.
For the substance Trastuzumab [Herceptin], the “% growth inhibition” value is listed as 52% in the assay on NCI-N87 cells (six days for Herceptin, n = 3); 51% with SK-Br-3 cells (six days for Herceptin, n = 3); 10% with SKOV-3 cells (six days for Herceptin, n = 3); 62% in the assay on OE-19 cells (six days for Herceptin, n = 3); 1.7% with MDA-MB-231 cells (six days for Herceptin, n = 3).

Broadly, the GI50 is the concentration at which growth is held to half of that of the control.
